In patent publication US12564559B2, “Combinations of LSD1 inhibitors for use in the treatment of solid tumors” (Oryzon Genomics, S.A., priority 2016, dated 2026):

Tested on: SCLC cell lines
Experiment: In vitro Synergy Score of combinations with the LSD1 inhibitor in expanded panel of SCLC cell lines, Example 3 / Table 5
Type: cell-based, human
Conditions: for Synergy Scores of SCLC cell lines DMS-114: SCLC cell line DMS-114; for Synergy Scores of SCLC cell lines DMS-114 / Synergy Scores of SCLC cell lines NCI-H69 / Synergy Scores of SCLC cell lines NCI-H187 / Synergy Scores of SCLC cell lines NCI-H446 / Synergy Scores of SCLC cell lines NCI-H510 / Synergy Scores of SCLC cell lines NCI-H526 / Synergy Scores of SCLC cell lines NCI-H1417 / Synergy Scores of SCLC cell lines NCI-H1876 / Synergy Scores of SCLC cell lines NCI-H2171 / Synergy Scores of SCLC cell lines SHP-77: 2nd API combined with (trans)-N1-((1R,2S)-2-phenylcyclopropyl)cyclohexane-1,4-diamine, scores >6.4 considered significant; for Synergy Scores of SCLC cell lines NCI-H69: SCLC cell line NCI-H69; for Synergy Scores of SCLC cell lines NCI-H187: SCLC cell line NCI-H187; for Synergy Scores of SCLC cell lines NCI-H446: SCLC cell line NCI-H446; for Synergy Scores of SCLC cell lines NCI-H510: SCLC cell line NCI-H510; for Synergy Scores of SCLC cell lines NCI-H526: SCLC cell line NCI-H526; for Synergy Scores of SCLC cell lines NCI-H1417: SCLC cell line NCI-H1417; for Synergy Scores of SCLC cell lines NCI-H1876: SCLC cell line NCI-H1876; for Synergy Scores of SCLC cell lines NCI-H2171: SCLC cell line NCI-H2171; for Synergy Scores of SCLC cell lines SHP-77: SCLC cell line SHP-77; for synergy with LSD1 inhibition: combination with (trans)-N1-((1R,2S)-2-phenylcyclopropyl)cyclohexane-1,4-diamine, expanded panel of SCLC cell lines

Structure (SMILES): CC(C)N(C[C@H]1O[C@@H](n2cnc3c(N)ncnc32)[C@H](O)[C@@H]1O)[C@H]1C[C@@H](CCc2nc3ccc(C(C)(C)C)cc3[nH]2)C1 (relative stereo) [EPZ-5676, 5′-deoxy-5′-[[cis-3-[2-[6-(1,1-dimethylethyl)-1H-benzimidazol-2-yl]ethyl]cyclobutyl](1-methylethyl)amino]-adenosine]
- Synergy Scores of SCLC cell lines DMS-114: 0.00
- Synergy Scores of SCLC cell lines NCI-H69: 0.70
- Synergy Scores of SCLC cell lines NCI-H187: 0.11
- Synergy Scores of SCLC cell lines NCI-H446: 0.24
- Synergy Scores of SCLC cell lines NCI-H510: 19.72
- Synergy Scores of SCLC cell lines NCI-H526: 1.20
- Synergy Scores of SCLC cell lines NCI-H1417: 0.87
- Synergy Scores of SCLC cell lines NCI-H1876: 6.68
- Synergy Scores of SCLC cell lines NCI-H2171: 0.05
- Synergy Scores of SCLC cell lines SHP-77: 0.12
- synergy with LSD1 inhibition: Synergy was also observed

Structure (SMILES): CC1(C)CCC(CN2CCN(c3ccc(C(=O)NS(=O)(=O)c4ccc(NCC5CCOCC5)c([N+](=O)[O-])c4)c(Oc4cnc5[nH]ccc5c4)c3)CC2)=C(c2ccc(Cl)cc2)C1 [ABT-199, 4-[4-[[2-(4-Chlorophenyl)-4,4-dimethylcyclohex-1-en-1-yl]methyl]piperazin-1-yl]-N-[[3-nitro-4-[[(tetrahydro-2H-pyran-4-yl)methyl]amino]phenyl]sulfonyl]-2-[(1H-pyrrolo[2,3-b]pyridin-5-yl)oxy]benzamide]
- Synergy Scores of SCLC cell lines DMS-114: 0.03
- Synergy Scores of SCLC cell lines NCI-H69: 5.07
- Synergy Scores of SCLC cell lines NCI-H187: 1.95
- Synergy Scores of SCLC cell lines NCI-H446: 0.07
- Synergy Scores of SCLC cell lines NCI-H510: 13.46
- Synergy Scores of SCLC cell lines NCI-H526: 3.47
- Synergy Scores of SCLC cell lines NCI-H1417: 11.01
- Synergy Scores of SCLC cell lines NCI-H1876: 4.63
- Synergy Scores of SCLC cell lines NCI-H2171: 0.04
- Synergy Scores of SCLC cell lines SHP-77: 0.33
- synergy with LSD1 inhibition: highly synergistic

Structure (SMILES): CN(C)CC[C@H](CSc1ccccc1)Nc1ccc(S(=O)(=O)NC(=O)c2ccc(N3CCN(Cc4ccccc4-c4ccc(Cl)cc4)CC3)cc2)cc1[N+](=O)[O-] [ABT-737, 4-[4-[[2-(4-chlorophenyl)phenyl]methyl]piperazin-1-yl]-N-[4-[[(2R)-4-(dimethylamino)-1-phenylsulfanylbutan-2-yl]amino]-3-nitrophenyl]sulfonylbenzamide]
- Synergy Scores of SCLC cell lines DMS-114: 0.42
- Synergy Scores of SCLC cell lines NCI-H69: 4.01
- Synergy Scores of SCLC cell lines NCI-H187: 4.17
- Synergy Scores of SCLC cell lines NCI-H446: 1.73
- Synergy Scores of SCLC cell lines NCI-H510: 11.80
- Synergy Scores of SCLC cell lines NCI-H526: 11.44
- Synergy Scores of SCLC cell lines NCI-H1417: 25.26
- Synergy Scores of SCLC cell lines NCI-H1876: 19.84
- Synergy Scores of SCLC cell lines NCI-H2171: 3.15
- Synergy Scores of SCLC cell lines SHP-77: 1.88
- synergy with LSD1 inhibition: highly synergistic

Structure (SMILES): CN1C(=O)[C@@H](NC(=O)[C@H](CCC(F)(F)F)[C@H](CCC(F)(F)F)C(N)=O)N=C(c2ccccc2)c2ccccc21 [BMS-906024, (2R,3S)-N-[(3S)-1-Methyl-2-oxo-5-phenyl-2,3-dihydro-1H-1,4-benzodiazepin-3-yl]-2,3-bis(3,3,3-trifluoropropyl)succinamide]
- Synergy Scores of SCLC cell lines DMS-114: 0.02
- Synergy Scores of SCLC cell lines NCI-H69: 8.46
- Synergy Scores of SCLC cell lines NCI-H187: 0.45
- Synergy Scores of SCLC cell lines NCI-H446: 0.12
- Synergy Scores of SCLC cell lines NCI-H510: 0.00
- Synergy Scores of SCLC cell lines NCI-H526: 5.80
- Synergy Scores of SCLC cell lines NCI-H1417: 0.33
- Synergy Scores of SCLC cell lines NCI-H1876: 0.22
- Synergy Scores of SCLC cell lines NCI-H2171: 0.19
- Synergy Scores of SCLC cell lines SHP-77: 0.03

Structure (SMILES): CCS(=O)(=O)N1CCC(C(C)n2c(C)c(C(=O)NCc3c(OC)cc(C)[nH]c3=O)c3ccccc32)CC1 (stereo not shown) [CPI-169, N-[(1,2-dihydro-4-methoxy-6-methyl-2-oxo-3-pyridinyl)methyl]-1-[1-[1-(ethylsulfonyl)-4-piperidinyl]ethyl]-2-methyl-1H-indole-3-carboxamide]
- Synergy Scores of SCLC cell lines DMS-114: 0.06
- Synergy Scores of SCLC cell lines NCI-H69: 0.03
- Synergy Scores of SCLC cell lines NCI-H187: 0.09
- Synergy Scores of SCLC cell lines NCI-H446: 0.31
- Synergy Scores of SCLC cell lines NCI-H510: 5.76
- Synergy Scores of SCLC cell lines NCI-H526: 2.46
- Synergy Scores of SCLC cell lines NCI-H1417: 0.38
- Synergy Scores of SCLC cell lines NCI-H1876: 8.50
- Synergy Scores of SCLC cell lines NCI-H2171: 0.00
- Synergy Scores of SCLC cell lines SHP-77: 0.03
- synergy with LSD1 inhibition: Synergy was also observed

Structure (SMILES): Cc1sc2c(c1C)C(c1ccc(Cl)cc1)=N[C@@H](CC(N)=O)c1nnc(C)n1-2 [CPI-203, (6S)-4-(4-chlorophenyl)-2,3,9-trimethyl-6H-thieno[3,2-f][1,2,4]triazolo[4,3-a][1,4]diazepine-6-acetamide]
- Synergy Scores of SCLC cell lines DMS-114: 1.58
- Synergy Scores of SCLC cell lines NCI-H69: 8.68
- Synergy Scores of SCLC cell lines NCI-H187: 1.24
- Synergy Scores of SCLC cell lines NCI-H446: 0.58
- Synergy Scores of SCLC cell lines NCI-H510: 25.41
- Synergy Scores of SCLC cell lines NCI-H526: 11.09
- Synergy Scores of SCLC cell lines NCI-H1417: 13.47
- Synergy Scores of SCLC cell lines NCI-H1876: 15.25
- Synergy Scores of SCLC cell lines NCI-H2171: 6.83
- Synergy Scores of SCLC cell lines SHP-77: 0.37
- synergy with LSD1 inhibition: highly synergistic

Structure (SMILES): Cc1cc(C)c(CNC(=O)c2cc(-c3ccc(CN4CCOCC4)cc3)cc3c2cnn3C2CCCC2)c(=O)[nH]1 [EPZ005687, 1-cyclopentyl-N-[(1,2-dihydro-4,6-dimethyl-2-oxo-3-pyridinyl)methyl]-6-[4-(4-morpholinylmethyl)phenyl]-1H-indazole-4-carboxamide]
- Synergy Scores of SCLC cell lines DMS-114: 0.14
- Synergy Scores of SCLC cell lines NCI-H69: 0.80
- Synergy Scores of SCLC cell lines NCI-H187: 0.10
- Synergy Scores of SCLC cell lines NCI-H446: 0.35
- Synergy Scores of SCLC cell lines NCI-H510: 10.77
- Synergy Scores of SCLC cell lines NCI-H526: 3.66
- Synergy Scores of SCLC cell lines NCI-H1417: 0.46
- Synergy Scores of SCLC cell lines NCI-H1876: 4.57
- Synergy Scores of SCLC cell lines NCI-H2171: 0.48
- Synergy Scores of SCLC cell lines SHP-77: 0.23
- synergy with LSD1 inhibition: Synergy was also observed

Structure (SMILES): CCN(c1cc(-c2ccc(CN3CCOCC3)cc2)cc(C(=O)NCc2c(C)cc(C)[nH]c2=O)c1C)C1CCOCC1 [EPZ-6438, N-[(1,2-dihydro-4,6-dimethyl-2-oxo-3-pyridinyl)methyl]-5-[ethyl(tetrahydro-2H-pyran-4-yl)amino]-4-methyl-4′-(4-morpholinylmethyl)-[1,1′-biphenyl]-3-carboxamide]
- Synergy Scores of SCLC cell lines DMS-114: 0.04
- Synergy Scores of SCLC cell lines NCI-H69: 0.68
- Synergy Scores of SCLC cell lines NCI-H187: 0.03
- Synergy Scores of SCLC cell lines NCI-H446: 0.00
- Synergy Scores of SCLC cell lines NCI-H510: 9.06
- Synergy Scores of SCLC cell lines NCI-H526: 1.82
- Synergy Scores of SCLC cell lines NCI-H1417: 0.31
- Synergy Scores of SCLC cell lines NCI-H1876: 8.18
- Synergy Scores of SCLC cell lines NCI-H2171: 0.01
- Synergy Scores of SCLC cell lines SHP-77: 0.02
- synergy with LSD1 inhibition: Synergy was also observed

Structure (SMILES): CC1=C(C(=O)OC2CCCCC2)C(c2ccc([N+](=O)[O-])cc2)C2=C(CC(C)(C)CC2=O)N1 (stereo not shown) [FLI 06, Cyclohexyl 1,4,5,6,7,8-hexahydro-2,7,7-trimethyl-4-(4-nitrophenyl)-5-oxo-3-quinolinecarboxylate]
- Synergy Scores of SCLC cell lines DMS-114: 5.48
- Synergy Scores of SCLC cell lines NCI-H69: 4.01
- Synergy Scores of SCLC cell lines NCI-H187: 1.71
- Synergy Scores of SCLC cell lines NCI-H446: 3.29
- Synergy Scores of SCLC cell lines NCI-H510: 0.83
- Synergy Scores of SCLC cell lines NCI-H526: 2.18
- Synergy Scores of SCLC cell lines NCI-H1417: 0.28
- Synergy Scores of SCLC cell lines NCI-H1876: 6.95
- Synergy Scores of SCLC cell lines NCI-H2171: 1.76
- Synergy Scores of SCLC cell lines SHP-77: 6.32

Structure (SMILES): CS(=O)(=O)c1ccc(C(=O)Nc2ccc(Cl)c(-c3ccccn3)c2)c(Cl)c1 [GDC-0449, 2-Chloro-N-(4-chloro-3-pyridin-2-ylphenyl)-4-methylsulfonylbenzamide]
- Synergy Scores of SCLC cell lines DMS-114: 0.01
- Synergy Scores of SCLC cell lines NCI-H69: 0.90
- Synergy Scores of SCLC cell lines NCI-H187: 0.16
- Synergy Scores of SCLC cell lines NCI-H446: 0.16
- Synergy Scores of SCLC cell lines NCI-H510: 3.05
- Synergy Scores of SCLC cell lines NCI-H526: 1.76
- Synergy Scores of SCLC cell lines NCI-H1417: 0.25
- Synergy Scores of SCLC cell lines NCI-H1876: 5.64
- Synergy Scores of SCLC cell lines NCI-H2171: 0.10
- Synergy Scores of SCLC cell lines SHP-77: 0.24

Structure (SMILES): CC[C@H](C)n1cc(C)c2c(C(=O)NCc3c(C)cc(C)[nH]c3=O)cc(-c3ccc(N4CCNCC4)nc3)cc21 [GSK126, N-[(1,2-dihydro-4,6-dimethyl-2-oxo-3-pyridinyl)methyl]-3-methyl-1-[(1S)-1-methylpropyl]-6-[6-(1-piperazinyl)-3-pyridinyl]-1H-indole-4-carboxamide]
- Synergy Scores of SCLC cell lines DMS-114: 0.51
- Synergy Scores of SCLC cell lines NCI-H69: 1.63
- Synergy Scores of SCLC cell lines NCI-H187: 0.35
- Synergy Scores of SCLC cell lines NCI-H446: 0.41
- Synergy Scores of SCLC cell lines NCI-H510: 12.69
- Synergy Scores of SCLC cell lines NCI-H526: 3.20
- Synergy Scores of SCLC cell lines NCI-H1417: 0.41
- Synergy Scores of SCLC cell lines NCI-H1876: 10.80
- Synergy Scores of SCLC cell lines NCI-H2171: 0.80
- Synergy Scores of SCLC cell lines SHP-77: 0.02
- synergy with LSD1 inhibition: Synergy was also observed
